Source: patent publication US20250195485A1, “PROPIONIC ACID DERIVATIVE AND MEDICAL USE THEREOF” (Xizang Haisco Pharmaceutical Co., Ltd., priority 2021, published 2025)
Read-outs that look alike come from different tables or passages of the source. Each block holds one compound with its values, some of them ahead of it.

The chains behind the UniProt entries cited, without tags or fusion partners. Residues count along the entry.
UniProt P13612, 34-1032 limits assumed: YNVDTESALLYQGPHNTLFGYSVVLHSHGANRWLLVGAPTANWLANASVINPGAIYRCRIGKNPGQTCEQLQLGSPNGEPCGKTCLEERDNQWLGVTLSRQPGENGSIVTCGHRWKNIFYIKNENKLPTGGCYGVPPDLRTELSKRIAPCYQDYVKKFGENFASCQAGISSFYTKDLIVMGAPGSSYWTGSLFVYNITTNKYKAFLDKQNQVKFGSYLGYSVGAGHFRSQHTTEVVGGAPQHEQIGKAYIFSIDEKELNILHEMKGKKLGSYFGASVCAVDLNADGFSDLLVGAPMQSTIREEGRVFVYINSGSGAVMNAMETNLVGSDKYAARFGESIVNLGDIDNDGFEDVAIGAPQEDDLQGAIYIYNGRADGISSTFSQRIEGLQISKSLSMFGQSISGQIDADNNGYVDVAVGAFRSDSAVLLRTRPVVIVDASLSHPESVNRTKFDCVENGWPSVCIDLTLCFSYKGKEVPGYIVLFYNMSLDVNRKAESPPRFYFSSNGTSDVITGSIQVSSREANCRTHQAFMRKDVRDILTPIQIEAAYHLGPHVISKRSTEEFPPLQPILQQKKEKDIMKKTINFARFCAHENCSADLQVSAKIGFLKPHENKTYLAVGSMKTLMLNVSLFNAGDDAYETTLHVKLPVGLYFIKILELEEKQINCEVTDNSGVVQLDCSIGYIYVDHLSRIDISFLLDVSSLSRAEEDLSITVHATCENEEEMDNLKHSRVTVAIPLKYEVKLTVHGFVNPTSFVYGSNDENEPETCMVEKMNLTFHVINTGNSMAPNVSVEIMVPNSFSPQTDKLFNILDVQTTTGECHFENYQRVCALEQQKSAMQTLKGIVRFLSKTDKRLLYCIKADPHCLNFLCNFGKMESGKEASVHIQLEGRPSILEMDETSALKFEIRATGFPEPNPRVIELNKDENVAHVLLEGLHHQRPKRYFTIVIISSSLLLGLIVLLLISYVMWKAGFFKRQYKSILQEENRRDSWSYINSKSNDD
UniProt P26010, 20-798 limits assumed: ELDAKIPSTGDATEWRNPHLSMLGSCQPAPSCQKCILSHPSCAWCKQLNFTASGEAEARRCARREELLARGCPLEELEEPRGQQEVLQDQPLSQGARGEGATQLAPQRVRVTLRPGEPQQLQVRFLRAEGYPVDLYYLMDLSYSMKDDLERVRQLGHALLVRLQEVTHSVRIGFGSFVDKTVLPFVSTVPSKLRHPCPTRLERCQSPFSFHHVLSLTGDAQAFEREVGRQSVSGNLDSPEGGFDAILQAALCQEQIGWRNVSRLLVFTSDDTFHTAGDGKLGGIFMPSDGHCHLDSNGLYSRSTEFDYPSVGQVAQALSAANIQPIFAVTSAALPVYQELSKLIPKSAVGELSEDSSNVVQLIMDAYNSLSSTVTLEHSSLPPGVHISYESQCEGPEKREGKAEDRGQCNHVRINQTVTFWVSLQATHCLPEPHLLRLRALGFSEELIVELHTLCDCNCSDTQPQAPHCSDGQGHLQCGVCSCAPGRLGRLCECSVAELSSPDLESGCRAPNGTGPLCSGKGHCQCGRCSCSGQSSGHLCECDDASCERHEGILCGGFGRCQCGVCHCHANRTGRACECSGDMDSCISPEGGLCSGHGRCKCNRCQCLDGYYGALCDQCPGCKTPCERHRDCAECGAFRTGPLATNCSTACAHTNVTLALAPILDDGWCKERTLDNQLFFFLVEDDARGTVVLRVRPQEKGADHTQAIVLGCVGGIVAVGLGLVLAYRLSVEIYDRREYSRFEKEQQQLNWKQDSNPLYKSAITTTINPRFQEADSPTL
UniProt P05556, 21-798 limits assumed: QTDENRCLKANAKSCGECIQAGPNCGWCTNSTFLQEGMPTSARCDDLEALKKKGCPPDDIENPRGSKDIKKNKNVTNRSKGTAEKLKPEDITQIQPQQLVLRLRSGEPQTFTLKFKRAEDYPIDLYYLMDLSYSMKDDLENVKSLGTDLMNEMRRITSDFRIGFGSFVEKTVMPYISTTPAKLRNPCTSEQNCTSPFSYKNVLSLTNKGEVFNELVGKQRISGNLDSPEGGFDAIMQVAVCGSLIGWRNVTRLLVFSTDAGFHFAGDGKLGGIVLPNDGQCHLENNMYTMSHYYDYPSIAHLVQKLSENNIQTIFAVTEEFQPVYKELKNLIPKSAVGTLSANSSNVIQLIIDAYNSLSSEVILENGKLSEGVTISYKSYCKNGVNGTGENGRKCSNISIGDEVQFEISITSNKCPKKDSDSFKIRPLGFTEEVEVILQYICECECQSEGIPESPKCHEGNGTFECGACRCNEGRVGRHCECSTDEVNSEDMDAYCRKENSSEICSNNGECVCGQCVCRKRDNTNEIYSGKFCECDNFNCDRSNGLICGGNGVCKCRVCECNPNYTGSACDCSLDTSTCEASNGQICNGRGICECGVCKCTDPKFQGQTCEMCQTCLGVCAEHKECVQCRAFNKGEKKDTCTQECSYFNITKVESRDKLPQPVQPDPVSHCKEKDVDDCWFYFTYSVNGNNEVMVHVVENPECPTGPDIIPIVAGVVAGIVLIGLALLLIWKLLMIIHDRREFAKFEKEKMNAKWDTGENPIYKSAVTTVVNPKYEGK

Tests used:
integrin α4β7 = integrin α4β7 (Homo sapiens, UniProt P13612+P26010); assay: Integrin α4β7-mediated cell adhesion assay (RPM18866 cells on MAdCAM-1); assay type: cell-based; details: for IC50: read-out: RPMI-8866 (α4β7)/MadCAM-1 IC50, RPMI-8866 cells adhering to MAdCAM-1; for α4β1/α4β7: selectivity ratio of α4β1 IC50 to α4β7 IC50 in cell adhesion
integrin α4β1 = integrin α4β1 (Homo sapiens, UniProt P05556+P13612); assay: Integrin α4β1-mediated cell adhesion assay (Jurkat cells on VCAM); assay type: cell-based; details: read-out: Jurkat (α4β1)/VCAM-1 IC50, Jurkat cells adhering to VCAM-1
[1] = Pharmacokinetic test in mice; details: male BALB/c mice; for CL / AUC: plasma, groups: intravenously 1 mg/kg, intragastrically 10 mg/kg (route for this parameter not stated); for AUC: oral absorption results; for F: intragastrically 10 mg/kg vs intravenously 1 mg/kg

IC50 (integrin α4β7): < 0.5 nM
α4β1/α4β7 (integrin α4β7): >100
IC50 (integrin α4β1): 16.3 nM
Compound: C#Cc1ncc(C(CC(=O)O)NC(=O)C(CC(C)C)n2cc(CCN(C)C)c(C(F)(F)F)cc2=O)cc1-c1c(C)cc(F)cc1C (stereo not drawn)

IC50 (integrin α4β7): < 0.5 nM
α4β1/α4β7 (integrin α4β7): >100
IC50 (integrin α4β1): 66.8 nM
Compound: Cc1cc(F)cc(C)c1-c1cc(C(CC(=O)O)NC(=O)C(CC(C)C)n2cc(CCN(C)C)c(C(F)(F)F)cc2=O)cc2c1CCC2 (stereo not drawn) [Compound 30-2]

IC50 (integrin α4β7; tested form: TFA): < 0.5 nM
α4β1/α4β7 (integrin α4β7; tested form: TFA): >500
IC50 (integrin α4β1; tested form: TFA): 128 nM
Compound: Cc1cc(F)cc(C)c1-c1cc(C(CC(=O)O)NC(=O)C(CC(C)C)n2cc(CCN3CCCOCC3)c(C(F)(F)F)cc2=O)cc2c1CCC2 (stereo not drawn)

IC50 (integrin α4β7; tested form: TFA): < 10 nM
Compound: Cc1cc(F)cc(C)c1-c1cc(C(CC(=O)O)NC(=O)C(CC(C)C)n2cc(CCn3ccnc3)c(C(F)(F)F)cc2=O)cc2c1CCC2 (stereo not drawn)

IC50 (integrin α4β7): < 0.5 nM
α4β1/α4β7 (integrin α4β7): >100
IC50 (integrin α4β1): 25.6 nM
Compound: Cc1cc(F)cc(C)c1-c1cc(C(CC(=O)O)NC(=O)C(CC(C)C)n2cc(CCN3C[C@@H]4C[C@H]3CO4)c(C(F)(F)F)cc2=O)cc2c1CCC2 (stereo partly drawn)

IC50 (integrin α4β7): < 0.5 nM
Compound: C#Cc1ncc(C(CC(=O)O)NC(=O)C(CC(C)C)n2cc(CCN3CCC3)c(C(F)(F)F)cc2=O)cc1-c1c(C)cc(F)cc1C (stereo not drawn)

IC50 (integrin α4β7; tested form: TFA): < 10 nM
Compound: Cc1cc(C)c(-c2cc(C(CC(=O)O)NC(=O)C(CC(C)C)n3cc(CCN4CCC4)c(C(F)(F)F)cc3=O)cn3ccnc23)c(C)c1 (stereo not drawn)

IC50 (integrin α4β7): < 10 nM
Compound: Cc1cc(F)cc(C)c1-c1cc(C(CC(=O)O)NC(=O)C(CC(C)C)n2cc(CCN(C)C3CC3)c(C(F)(F)F)cc2=O)cc2c1CCC2 (stereo not drawn)

IC50 (integrin α4β7): < 0.5 nM
Compound: Cc1cc(F)cc(C)c1-c1cc(C(CC(=O)O)NC(=O)C(CC(C)C)n2cc(CCN3CCC3)c(C(F)(F)F)cc2=O)cc2nccn12 (stereo not drawn)

IC50 (integrin α4β7): < 0.5 nM
α4β1/α4β7 (integrin α4β7): >100
IC50 (integrin α4β1): 35.5 nM
Compound: Cc1cc(F)cc(C)c1-c1cc(C(CC(=O)O)NC(=O)C(CC(C)C)n2cc(CCN3C[C@H]4C[C@@H]3CO4)c(C(F)(F)F)cc2=O)cc2c1CCC2 (stereo partly drawn)

IC50 (integrin α4β7; tested form: TFA): < 0.5 nM
Compound: C#Cc1cc(-c2c(C)cc(F)cc2C)c(F)c(C(CC(=O)O)NC(=O)C(CC(C)C)n2cc(CCN3CCC3)c(C(F)(F)F)cc2=O)c1F (stereo not drawn)

IC50 (integrin α4β7): < 0.5 nM
α4β1/α4β7 (integrin α4β7): >100
IC50 (integrin α4β1): 34.7 nM
Compound: Cc1cccc(C)c1-c1cc(C(CC(=O)O)NC(=O)C(CC(C)C)n2cc(CCN3CC(F)C3)cc(F)c2=O)cc2nccn12 (stereo not drawn)

IC50 (integrin α4β7; tested form: TFA): < 0.5 nM
α4β1/α4β7 (integrin α4β7; tested form: TFA): >100
IC50 (integrin α4β1; tested form: TFA): 172 nM
Compound: Cc1cc(C)c(-c2cc(C(CC(=O)O)NC(=O)C(CC(C)C)n3cc(CCN(C)C)c(C(F)(F)F)cc3=O)cc3c2CCC3)c(C)c1 (stereo not drawn)

IC50 (integrin α4β7): < 0.5 nM
Compound: Cc1cc(F)cc(C)c1-c1cc(C(CC(=O)O)NC(=O)C(CC(C)C)n2cc(CCN3CCC3)c(C(F)(F)F)cc2=O)cn2ccnc12 (stereo not drawn)

IC50 (integrin α4β7; tested form: ammonium salt): < 0.5 nM
α4β1/α4β7 (integrin α4β7; tested form: ammonium salt): >100
IC50 (integrin α4β1; tested form: ammonium salt): 6.58 nM
Compound: Cc1cc(F)cc(C)c1-c1cc(C(CC(=O)O)NC(=O)C(CC(C)C)n2cc(CCN(C)C)c(C(F)(F)F)cc2=O)cn2ccnc12 (stereo not drawn)

IC50 (integrin α4β7; tested form: TFA): < 0.5 nM
α4β1/α4β7 (integrin α4β7; tested form: TFA): >100
IC50 (integrin α4β1; tested form: TFA): 41 nM
Compound: Cc1cc(F)cc(C)c1-c1cc(C(CC(=O)O)NC(=O)C(CC(C)C)n2cc(CCN3CC4CCC(C3)N4C)c(C(F)(F)F)cc2=O)cc2c1CCC2 (stereo not drawn)

IC50 (integrin α4β7): < 0.5 nM
Compound: Cc1cc(F)cc(C)c1-c1cc(C(CC(=O)O)NC(=O)C(CC(C)C)n2cc(CCN3CCC4(CC4)C3)c(C(F)(F)F)cc2=O)cc2c1CCC2 (stereo not drawn)

Second part, the compound before the results:

Compound: COc1ncc(C(CC(=O)O)NC(=O)C(CC(C)C)n2ccc(C)cc2=O)cc1-c1c(C)cccc1C (stereo not drawn)
IC50 (integrin α4β7; tested form: TFA): < 10 nM

Compound: C#Cc1ncc(C(CC(=O)O)NC(=O)C(CC(C)C)n2cc(CCN(C)C)c(C(F)(F)F)cc2=O)cc1-c1c(C)cccc1C (stereo not drawn)
IC50 (integrin α4β7; tested form: TFA): < 0.5 nM
α4β1/α4β7 (integrin α4β7; tested form: TFA): >500
IC50 (integrin α4β1; tested form: TFA): 130 nM

Compound: CC#Cc1cc(-c2c(C)cccc2C)c(F)c(C(CC(=O)O)NC(=O)C(CC(C)C)n2cc(CCN(C)C)c(C(F)(F)F)cc2=O)c1F (stereo not drawn)
IC50 (integrin α4β7): < 0.5 nM
α4β1/α4β7 (integrin α4β7): >500
CL [1]: 17.7 mL/min/kg
AUC [1]: 2506 ng·h/mL
IC50 (integrin α4β1): 167 nM

Compound: Cc1ccn(C(CC(C)C)C(=O)NC(CC(=O)O)c2cc(-c3c(C)cccc3C)nc(C)c2F)c(=O)c1 (stereo not drawn)
IC50 (integrin α4β7; tested form: ammonium salt): < 10 nM

Compound: Cc1ccn(C(CC(C)C)C(=O)NC(CC(=O)O)c2cc(-c3c(C)cccc3C)c3nccn3c2)c(=O)c1 (stereo not drawn)
IC50 (integrin α4β7; tested form: TFA): < 10 nM

Compound: COCC1CN(CCc2cc(F)c(=O)n(C(CC(C)C)C(=O)NC(CC(=O)O)c3cc(-c4c(C)cccc4C)cc(C)c3F)c2)C1 (stereo not drawn)
IC50 (integrin α4β7): < 10 nM

Compound: Cc1cc(C=C(F)F)cc(C)c1-c1cc(C(CC(=O)O)NC(=O)C(CC(C)C)n2cc(CCN(C)C)c(C(F)(F)F)cc2=O)cc2c1CCC2 (single isomer, unassigned) [Compound 43-1]
IC50 (integrin α4β7): < 20 nM
IC50 (integrin α4β1): > 4000 nM

Compound: Cc1cc(F)cc(C)c1-c1cc(C(CC(=O)O)NC(=O)C(CC(C)C)n2cc(CCN(C)C)c(C(F)(F)F)cc2=O)c2ccccc2c1 (stereo not drawn)
IC50 (integrin α4β7): < 0.5 nM

Compound: Cc1cc(C=C(F)F)cc(C)c1-c1cc(C(CC(=O)O)NC(=O)C(CC(C)C)n2cc(CCN(C)C)c(C(F)(F)F)cc2=O)cc2c1CCC2 (single isomer, unassigned) [Compound 43-2]
IC50 (integrin α4β7): < 0.5 nM
α4β1/α4β7 (integrin α4β7): >90
CL [1]: 41.6 mL/min/kg
AUC [1]: 1938 ng·h/mL
F [1]: 47.1%
IC50 (integrin α4β1): 34.3 nM

Compound: C#Cc1ncc(C(CC(=O)O)NC(=O)C(CC(C)C)n2ccc(C)cc2=O)cc1-c1c(C)cccc1C (stereo not drawn)
IC50 (integrin α4β7; tested form: TFA): < 0.5 nM

Compound: C#Cc1cc(-c2c(C)cc(F)cc2C)c(F)c(C(CC(=O)O)NC(=O)C(CC(C)C)n2cc(CCN(C)C)c(C(F)(F)F)cc2=O)c1F (stereo not drawn)
IC50 (integrin α4β7; tested form: TFA): < 0.5 nM
α4β1/α4β7 (integrin α4β7; tested form: TFA): >100
IC50 (integrin α4β1; tested form: TFA): 66 nM

Compound: CC#Cc1cc(-c2c(C)cc(C)cc2C)c(F)c(C(CC(=O)O)NC(=O)C(CC(C)C)n2cc(CCN(C)C)c(C(F)(F)F)cc2=O)c1F (stereo not drawn)
IC50 (integrin α4β7): < 0.5 nM
α4β1/α4β7 (integrin α4β7): >100
CL [1]: 10.0 mL/min/kg
AUC [1]: 4104 ng·h/mL
IC50 (integrin α4β1): 54.7 nM

Compound: Cc1cc(-c2c(C)cc(F)cc2C)cc(C(CC(=O)O)NC(=O)C(CC(C)C)n2cc(C3CCN(C)CC3)c(C(F)(F)F)cc2=O)c1F (stereo not drawn)
IC50 (integrin α4β7): < 0.5 nM
α4β1/α4β7 (integrin α4β7): >100
IC50 (integrin α4β1): 3.86 nM

Compound: Cc1cc(F)cc(C)c1-c1c(F)c(C(CC(=O)O)NC(=O)C(CC(C)C)n2cc(CCN(C)C)c(C(F)(F)F)cc2=O)c(F)c2c1CCC2 (stereo not drawn)
IC50 (integrin α4β7): < 0.5 nM
α4β1/α4β7 (integrin α4β7): >500
CL [1]: 16.3 mL/min/kg
AUC [1]: 3119 ng·h/mL
F [1]: 30.3%
IC50 (integrin α4β1): 95.2 nM

Compound: CC#Cc1cc(F)c(C(CC(=O)O)NC(=O)C(CC(C)C)n2cc(CCN(C)C)c(C(F)(F)F)cc2=O)c(F)c1-c1c(C)cc(F)cc1C (stereo not drawn)
IC50 (integrin α4β7; tested form: TFA): < 0.5 nM
α4β1/α4β7 (integrin α4β7; tested form: TFA): >100
IC50 (integrin α4β1; tested form: TFA): 7.93 nM

Compound: COc1cc(C)n(C)c(=O)c1-c1cc(C)c(F)c(C(CC(=O)O)NC(=O)C(CC(C)C)n2cc(CCN(C)C)c(C(F)(F)F)cc2=O)c1 (stereo not drawn)
IC50 (integrin α4β7): < 10 nM
